Test results taken from ChEMBL document CHEMBL4184341, “Structure-Based Design of Inhibitors with Improved Selectivity for Steroidogenic Cytochrome P450 17A1 over Cytochrome P450 21A2” (J Med Chem, 2018).

Amino acid sequences for entries named in this document (tags omitted). A change or cut given only in a name is not applied to a line headed by its entry.
UniProt P08686: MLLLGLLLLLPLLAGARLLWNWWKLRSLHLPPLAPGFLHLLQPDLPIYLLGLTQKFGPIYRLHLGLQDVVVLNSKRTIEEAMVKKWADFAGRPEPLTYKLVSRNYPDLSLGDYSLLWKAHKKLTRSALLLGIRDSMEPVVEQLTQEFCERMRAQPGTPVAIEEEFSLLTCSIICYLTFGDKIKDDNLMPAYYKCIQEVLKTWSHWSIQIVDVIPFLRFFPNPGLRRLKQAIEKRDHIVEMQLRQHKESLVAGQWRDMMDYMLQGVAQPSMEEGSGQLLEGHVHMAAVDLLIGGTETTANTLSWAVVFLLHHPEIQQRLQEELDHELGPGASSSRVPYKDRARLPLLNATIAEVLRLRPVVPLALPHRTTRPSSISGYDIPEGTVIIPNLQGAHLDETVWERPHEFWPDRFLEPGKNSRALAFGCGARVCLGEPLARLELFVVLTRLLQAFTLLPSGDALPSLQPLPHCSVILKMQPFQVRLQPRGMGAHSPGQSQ

Columns and labels:
Steroid 21-hydroxylase = Steroid 21-hydroxylase (Homo sapiens, UniProt P08686); test: Inhibition of C-terminal His-tagged recombinant human CYP21A2deltaH mutant expressed in Escherichia coli DH5alpha assessed as decrease in progesterone hydroxylation preincubated for 3 mins followed by NADPH addition measured after 8 mins in presence of cytochrome p450 reductase by LC-MS/MS method
clinical = conditions: human, in vivo
Homo sapiens = species on record: Homo sapiens; test: Selectivity ratio of IC50 for C-terminal His-tagged recombinant human CYP21A2deltaH mutant to IC50 for C-terminal His-tagged recombinant human CYP17A1delta19H mutant

| SMILES | IC50 (Steroid 21-hydroxylase) [nM] | Cmax (clinical) [nM] | Ratio IC50 (Homo sapiens) |
| --- | --- | --- | --- |
| C[C@]12CC[C@H](O)CC1=C(C#N)C[C@@H]1[C@@H]2CC[C@]2(C)C(c3cccnc3)=CC[C@@H]12 | 23.9 | – | – |
| C[C@]12CC[C@H](O)CC1=CC[C@@H]1[C@@H]2CC[C@]2(C)C(c3cccnc3)=CC[C@@H]12 [ABIRATERONE] | 32.4 | 90 | 6.6 |
